Molecular target: NMDAR/PSD-95 interaction (Rattus norvegicus, UniProt P31016)
Format: binding

Protein sequences, listed by entry. Tags and fused reporters are not part of them.
UniProt P31016, whole entry: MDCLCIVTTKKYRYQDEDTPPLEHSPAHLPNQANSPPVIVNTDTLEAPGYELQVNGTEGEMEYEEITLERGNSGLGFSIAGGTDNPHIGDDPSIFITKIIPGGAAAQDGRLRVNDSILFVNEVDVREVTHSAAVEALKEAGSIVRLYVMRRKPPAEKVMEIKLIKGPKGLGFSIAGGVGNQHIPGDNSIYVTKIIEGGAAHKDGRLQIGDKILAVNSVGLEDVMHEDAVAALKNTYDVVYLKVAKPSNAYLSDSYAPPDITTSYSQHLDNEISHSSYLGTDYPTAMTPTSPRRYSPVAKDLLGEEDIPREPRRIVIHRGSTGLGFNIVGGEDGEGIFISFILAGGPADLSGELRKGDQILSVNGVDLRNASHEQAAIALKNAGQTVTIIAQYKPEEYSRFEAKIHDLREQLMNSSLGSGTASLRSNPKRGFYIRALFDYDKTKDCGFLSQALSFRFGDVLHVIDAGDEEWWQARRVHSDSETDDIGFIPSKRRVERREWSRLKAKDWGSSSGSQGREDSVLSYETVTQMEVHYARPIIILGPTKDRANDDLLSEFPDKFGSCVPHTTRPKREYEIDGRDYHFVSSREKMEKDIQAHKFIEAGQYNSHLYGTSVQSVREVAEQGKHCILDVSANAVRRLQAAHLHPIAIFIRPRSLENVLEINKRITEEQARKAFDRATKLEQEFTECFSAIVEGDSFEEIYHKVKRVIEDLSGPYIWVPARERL

Substance: Tat-KLSSIESDV [Tat-NR2B9c]
- reduction of co-immunoprecipitation of PSD-95 with NR2B (optical density signal): 37.6±8.2%

From patent US8071548B2, “Method of reducing injury to mammalian cells” (Nono, Inc., priority 2002, dated 2011)
